The target in the data set is human CYP3A4 (Homo sapiens, UniProt P08684).

Sequences of proteins named here, by UniProt entry; tags and fusion partners are left off.
UniProt P08684, whole entry: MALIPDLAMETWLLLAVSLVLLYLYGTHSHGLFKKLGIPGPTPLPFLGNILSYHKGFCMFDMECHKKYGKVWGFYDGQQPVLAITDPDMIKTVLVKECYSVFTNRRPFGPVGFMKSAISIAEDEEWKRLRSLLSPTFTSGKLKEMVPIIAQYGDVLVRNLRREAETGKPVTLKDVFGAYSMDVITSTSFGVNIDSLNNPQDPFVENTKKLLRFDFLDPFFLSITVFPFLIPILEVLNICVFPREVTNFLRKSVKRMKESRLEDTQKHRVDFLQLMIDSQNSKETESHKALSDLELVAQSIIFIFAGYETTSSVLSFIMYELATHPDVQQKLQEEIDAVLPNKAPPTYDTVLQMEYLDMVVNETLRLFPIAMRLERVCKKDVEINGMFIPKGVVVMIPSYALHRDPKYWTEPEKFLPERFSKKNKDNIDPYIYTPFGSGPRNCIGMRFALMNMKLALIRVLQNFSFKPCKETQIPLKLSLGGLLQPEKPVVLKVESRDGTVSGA

Regarding `CCC(C)n1ncn(-c2ccc(N3CCN(c4ccc(OCC5COC(Cn6cncn6)(c6ccc(Cl)cc6Cl)O5)cc4)CC3)cc2)c1=O` (stereo not shown) [Itraconazole], the Range worked out at 10.
